Henry's law constant values, as collected for the OPERA models

Values as listed in the OPERA 2.9 repository of K. Mansouri.

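These are experimental values that the OPERA curators gathered from public databases to train and test their QSAR models. A listed value is a point estimate from one report or more. Method, purity and exact conditions of the single measurements are not given. The measured form (salt, isomer or mixture) is not always the one drawn. Some entries may be limits or estimates that an upstream database listed as plain numbers.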

Henry's law constant (air-water partitioning) is log10 of atm·m3/mol, nominally at 25 °C. The databases behind each value are named after "via".

compound,name,log Henry constant (log10 atm·m3/mol),via
CC1COc2ccccc2N1C(=O)C(Cl)Cl (centres undefined),Benoxacor,-7.121,OCHEM
CCCC/C=C\CCCCCCCCOC(C)=O,(Z)-9-Tetradecenyl acetate,-2.403,OCHEM
CC1=C(C(=O)Nc2ccccc2)S(=O)CCO1 (centres undefined),Carboxin sulfoxide,-6.353,OCHEM
Oc1cnc2ccccc2n1,2(1H)-Quinoxalinone,-6.372,OCHEM
Nc1cc(Cl)c(N)c(Cl)c1,"2,6-Dichloro-1,4-benzenediamine",-9.827,OCHEM
CCCCN(C)C(=O)Nc1ccc(Cl)c(Cl)c1,Neburon,-8.902,OCHEM
CCCCC(CC)CCl (centres undefined),3-(Chloromethyl)-heptane,-2.629,eChemPortal
CC1(C)Oc2cccc(O)c2O1,Bendiocarb phenol,-8.298,OCHEM
O=C(O)c1ccc(F)c(Oc2ccccc2)c1,4-Fluoro-3-phenoxybenzoic acid,-8.218,OCHEM
CC1=CCC(O)(C(C)C)CC1 (centres undefined),4-Methyl-1-(propan-2-yl)cyclohex-3-en-1-ol,-4.339,OCHEM
CCCCCCCCCCCCCCCCCCCCCC(N)=O,Docosanamide,-5.49,eChemPortal
O=C(OCc1ccccc1)c1sc(Cl)nc1C(F)(F)F,Flurazole,-6.606,OCHEM
CC(C)c1cc(Oc2ccccc2)cc(C(C)C)c1NC(=S)NC(C)(C)C,Diafenthiuron,-6.899,OCHEM
O=C1NCCN1,Ethylene urea,-10.87,OCHEM
CC=CCCCCC,2-Octene,-0.144,eChemPortal
CCCCCCCCCCCCCCCCCC(=O)Cl,Octadecanoyl chloride,-6.323,eChemPortal
CCCCOCCOC(=O)COc1nc(Cl)c(Cl)cc1Cl,Triclopyr butotyl,-6.608,OCHEM
NS(=O)(=O)c1cccs1,2-Thiophenesulfonamide,-10.68,OCHEM
Nc1c(Cl)c(F)[nH]c(=O)c1Cl,"4-Amino-3,5-dichloro-6-fluoro-2-pyridone",-6.964,OCHEM
CCCC(=NOCC(C)Oc1ccc(Cl)cc1)C1=C(O)CC(C2CCCSC2)CC1=O (centres undefined),Profoxydim,-6.76,OCHEM
COc1nc(C)nc(NC(=O)NS(=O)(=O)c2ccccc2OCCCl)n1,Triasulfuron,-9.103,OCHEM
CC(C)CNCC(C)C,2-Methyl-N-(2-methylpropyl)-1-propanamine,-9.888,OCHEM
C=CCSC(=O)n1c(N)c(-c2ccccc2C)c(=O)n1C(C)C,Fenpyrazamine,-8.796,OCHEM
CCCCCCCCC=CCCCCCCCC(=O)O,Octadec-9-enoic acid,-4.349,OCHEM
CCNc1nc(Cl)nc(N(CC)CC)n1,Trietazine,-7.038,OCHEM
COc1nc(C(F)(F)F)nc(=NC(O)=NS(=O)(=O)c2ccccc2C(F)(F)F)[nH]1,Tritosulfuron,-9.001,OCHEM
CC(O)CN(C)CC(C)O (centres undefined),"2-Propanol, 1,1'-(methylimino)bis-",-8.458,eChemPortal
CC(O)(c1ccc(Cl)cc1)c1ccc(Cl)cc1,Chlorfenethol,-7.893,OCHEM
O=C(O)c1cccc(Oc2ccccc2)c1,3-Phenoxybenzoic acid,-8.626,OCHEM
CSC(C)=NO,S-Methyl N-hydroxythioacetimidate,-7.203,OCHEM
CCCCCCC(C)OC(=O)COc1nc(F)c(Cl)c(N)c1Cl (centres undefined),Fluroxypyr-meptyl,-6.574,OCHEM

Repeated from above, the 5 entries with the highest log Henry constant:

compound,name,log Henry constant (log10 atm·m3/mol),via
CC=CCCCCC,2-Octene,-0.144,eChemPortal
CCCC/C=C\CCCCCCCCOC(C)=O,(Z)-9-Tetradecenyl acetate,-2.403,OCHEM
CCCCC(CC)CCl (centres undefined),3-(Chloromethyl)-heptane,-2.629,eChemPortal
CC1=CCC(O)(C(C)C)CC1 (centres undefined),4-Methyl-1-(propan-2-yl)cyclohex-3-en-1-ol,-4.339,OCHEM
CCCCCCCCC=CCCCCCCCC(=O)O,Octadec-9-enoic acid,-4.349,OCHEM